Test results: publication PMC12281477, “Live-Cell NanoBRET Assay to Measure AKT Inhibitor Binding to Conformational States of AKT” (ACS Chemical Biology, 2025)

How the values were obtained:
[1] = test system: T308 phosphorylation of Myr-AKT1-NL; conditions: dose-response 100-0.00001 μM, 1 μM K5 tracer, presence and absence of BX-795
[2] = test system: T308 and S473 phosphorylation of AKT1-NL; conditions: dose-response 100-0.00001 μM, 1 μM K5 tracer, ± 1 μM BX-795

Cc1n[nH]c2ccc(-c3cncc(OCC(N)Cc4c[nH]c5ccccc45)c3)cc12 (centres unmarked) [A-443654]
Phosphorylation of Myr-AKT1-NL (Western blot) [1]: dose-dependent increase in T308 phosphorylation | Phosphorylation of AKT1-NL (Western blot) [2]: dose-dependent increase in T308 and S473 phosphorylation
